SMILES strings stand for the structures. The entries are a selection whose mix differs from that of the whole data set. Calls of active or inactive are those of the source.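 Rule for the calls: active = mean inhibition of replicates at least 50% and at least half of replicates each reaching 50%; inconclusive = half or more replicates reach 50% but mean below 50%; inactive = the rest.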

This assay deals with Transforming acidic coiled-coil-containing protein 3 (Homo sapiens) (UniProt Q9Y6A5). The experiment in a line: disruptors of ARNT/TACC3 protein interaction, primary screen, biochemical, AlphaScreen, single concentration (AID 623870).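 Note: 0% = complete ARNT plus TACC3 wells and 100% = ARNT alone without TACC3.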 The note with it: AlphaScreen His-ARNT PAS-B/GST-TACC3 binding, luminescence; at 9.99 µM; stronger effect = higher value; TACC3 fragment carries E629A point mutation. A general note: Alpha assays give light when donor and acceptor beads are brought close together.
By inhibition is commonly meant the drop in the measured response relative to a control, in per cent. As for `O=[As](O)(c1ccc(O)cc1)c1ccccc1O`, the inhibition is inactive: -5.01%. The figure for `C[As](=O)(O)c1cccc(C(=O)O)c1` is inactive: -13.5%; for `O=[N+]([O-])c1ccc(-c2cc([N+](=O)[O-])c(O)c([N+](=O)[O-])c2)cc1` it is inactive: 5.06%. Under `Cc1ccc2nc3c(c(C)c2c1)CC(C(Cl)Cl)S3` (stereo not drawn) stands inactive: -7.82%; under `Cc1ccc(OP(=O)(Nc2ccc([N+](=O)[O-])cn2)Oc2ccc(C)cc2)cc1`, inactive: -6.53%; under `CC(C)c1ccc(OP(=O)(Nc2ccccn2)Oc2ccccc2F)cc1` (stereo not drawn), inactive: 0.27%. Under `COC(=O)C1(C)COP(=O)(N2CCCCCC2)OC1` (stereo not drawn) stands inactive: -17.2%; under `ClCCSc1nnc(-c2cccnc2)o1`, inactive: -2.97%.

As for `CCN(CC)C(=S)SC(NC=O)C(Cl)(Cl)Cl` (stereo not drawn), the inhibition was inactive: -2.15%.

Regarding `O=C(OC1CN2CCC1CC2)c1cccc2[nH]cnc12` (stereo not drawn), the inhibition is inactive: 1.13%. Under `CC(C)NC(=O)NP(=O)(Oc1ccccc1)Oc1ccccc1` stands inactive: 4.19%; under `O=[N+]([O-])c1cc([N+](=O)[O-])c(-c2ccn[nH]2)s1`, inactive: 5.73%; under `CS(=O)(=O)c1cc([N+](=O)[O-])c2no[n+]([O-])c2c1`, inactive: 16.3%. The figure for `CCOP1(=S)c2c(C)nn(CCC#N)c2N=C(c2ccccc2F)N1C` (stereo not drawn) is inactive: -0.868%; for `O=P(Nc1nccs1)(c1ccccc1)c1nc2ccccc2s1` (stereo not drawn) it is inactive: 1.39%; for `O=P(Nc1nccs1)(Oc1ccccc1)Oc1ccccc1` it is inactive: -1.01%. The figure for `Nc1ccccc1[As](=O)(O)c1ccccc1` is inactive: -0.776%; for `O=C(O)COc1ccc([As](=O)(O)O)cc1[N+](=O)[O-]` it is inactive: 0.494%. As for `NC(=O)Nc1ccc([As](=O)(O)O)cc1`, the inhibition is inactive: -4.85%. The figure for `CN(C)C(=O)c1cc([N+](=O)[O-])cc2c1-c1c(cc([N+](=O)[O-])cc1[N+](=O)[O-])C2=O` is inactive: 13.8%; for `O=[N+]([O-])c1ccc2c(c1)nnn2O` it is inactive: -1.76%.

On to `CN(C(=O)Cc1ccc(Cl)c(Cl)c1)[C@H]1CC[C@@]2(CCCO2)C[C@@H]1N1CCCC1`, for which the inhibition was inactive: 0.411%.

As for `N#CCCN(C(=O)COC(=O)C(O)(c1ccccc1)c1ccccc1)c1ccc(F)cc1`, the inhibition was inactive: -3.63%. Under `CN(C(=O)Cc1ccccc1)[C@@H]1CC[C@]2(CCCO2)C[C@H]1N1CCCC1` stands inactive: 1.79%; under `CCOP1(=S)c2c(C)nn(CCC#N)c2N=C(c2ccc(F)cc2)N1C` (stereo not drawn), inactive: -16.5%; under `COc1cc(C(=O)NCC2(N3CCOCC3)CCCCC2)cc(Cl)c1OC(C)C`, inactive: -5.72%. The figure for `O=[As](O)(O)c1cccnc1` is inactive: -5.91%.

Consider `CS(=O)(=O)c1ccc(Cl)c(NC(=O)COC(=O)C(O)(c2ccccc2)c2ccccc2)c1`, for which the inhibition was inactive: 0.14%. Under `O=C(OC1CN2CCC1CC2)c1ccc(Cl)cc1` (stereo not drawn) stands inactive: -0.764%; under `O=[As](O)(c1cccc(O)c1)c1cccc(O)c1`, inactive: 0.159%. Under `Cc1cccc(OCC(=O)OC2CN3CCC2CC3)c1` (stereo not drawn) stands inactive: -5.64%. The figure for `CCCOP(=S)(Nc1nc(N)cc(=O)[nH]1)OCCC` is inactive: -5.68%. As for `Cc1ccc(NCCc2c([N+](=O)[O-])cc([N+](=O)[O-])cc2[N+](=O)[O-])cc1`, the inhibition is inactive: 8.65%. The figure for `Nc1cccc2c([As](=O)(O)O)cccc12` is inactive: 7.21%; for `CCOP(=O)(Nc1ccc(C)cn1)OCC` it is inactive: -8.63%. On to `O=P1(Nc2ccccn2)COc2ccccc2OC1`, for which the inhibition is inactive: -0.5%.

For `CCC1=CC2Cc3nc4ccc(Cl)cc4c(N)c3C(C1)C2` (stereo not drawn), the inhibition is inactive: 33.9%. The figure for `CCOP(=O)(NC(=NC(C)c1ccccc1)NC(C)c1ccccc1)OCC` (stereo not drawn) is inactive: -0.582%; for `Clc1n[nH]nc1-c1nn[nH][15n]1` it is inactive: 8.57%; for `CC(C)(C)C(=O)NC(Sc1ncccn1)C(Cl)(Cl)Cl` (stereo not drawn) it is inactive: 4.92%.

On to `CC1(CBr)Cn2c(nc3ccccc3c2=O)S1` (stereo not drawn), for which the inhibition is inactive: -3.15%. The figure for `CC(C)/C=N\N=C(\N)N[N+](=O)[O-]` is inactive: -6.08%; for `CN(C(=O)Cc1ccc(Cl)c(Cl)c1)[C@@H]1CCCC[C@H]1N1CCCC1` it is inactive: -1.55%; for `Cc1nn(-c2ccccc2)c2c1P(=O)(N1CCOCC1)N(C)C(c1ccccc1)=N2` (stereo not drawn) it is inactive: -0.559%. Take `CC1CCC(C(C)C)C(OP(=O)(Nc2ccccn2)c2ccccc2)C1` (stereo not drawn): the inhibition is inactive: 0.411%. Turning to `Cc1ccc(C(=O)OC2CN3CCC2CC3)cc1` (stereo not drawn), the inhibition was inactive: -12.4%.

As to `O=C(/C=C/c1ccccc1)OC1CN2CCC1CC2` (stereo not drawn), the inhibition is inactive: -5.08%.

As to `CCCC1OP(=O)(Nc2ccccc2)OCC1CC` (stereo not drawn), the inhibition is inactive: -8.47%. Under `CN(C)C1(CNC(=O)c2ccc(S(C)(=O)=O)cc2)CCCCC1` stands inactive: 3.54%. For `O=P1(Nc2ncccn2)COc2ccccc2OC1`, the inhibition was inactive: -3.31%. On to `O=P1(Nc2ccc(Br)cn2)COc2ccccc2OC1`, for which the inhibition is inactive: 1.17%. The figure for `O=[As](O)(c1cccs1)c1cccs1` is inactive: 1.73%; for `Nc1cccc([As](=O)(O)c2ccccc2)c1` it is inactive: 3.62%.

Source of the values: PubChem BioAssay AID623870 (Broad Institute, 2012).
